This note sets out measurements from publication PMC4543428 (European journal of pharmacology, 2015).

In the assay the target is T1, sigma2 receptor (Mus musculus, UniProt Q8VD00).
T1 sequence (Q8VD00 1-176): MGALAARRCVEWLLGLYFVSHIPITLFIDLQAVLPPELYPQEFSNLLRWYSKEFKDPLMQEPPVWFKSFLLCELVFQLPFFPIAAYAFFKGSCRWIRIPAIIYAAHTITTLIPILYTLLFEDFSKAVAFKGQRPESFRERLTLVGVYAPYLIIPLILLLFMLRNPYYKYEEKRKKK
As to the kind of experiment: Sigma2 receptor competition binding against [3H]DTG /. Particulars: 3.0 nM [3H]DTG / 500 nM (+)-pentazocine; 60 min; 25 °C; mouse lung membranes.

With `CC(C)=CCN1CC[C@]2(C)c3cc(O)ccc3C[C@H]1[C@H]2C` [(+)-Pentazocine, (+)-pentazocine], the “Sigma2 nH (pseudo-Hill slope)” value is reported as 0.94 ± 0.10.
